According to US4863898A, “Amino acid chelated compositions for delivery to specific biological tissue sites” (priority 1986, dated 1989):

What was measured:
[1] = female rats, after two hours
Experimental: Six female rats, weighing 250 gms.±10 gms., were divided into two groups. All rats were anethetized with 0.15 mls sodium phenobarbital USP. […] To the other three, the same amount of calcium was administered in the form a calcium chloride.
After two hours, all of he rats were sacrificed and the hypothalamus was removed and read for radioactivity.

[2] = stability constant of amino acid chelate; assay type: physicochemical
Source text: The determination of stability constants of amino acid chelates is well documented in U.S. Pat. No. 4,167,564 and the means by which amino acid chelates may be formulated to provide optimal stability constants within the required ranges are disclosed in U.S. Pat. Nos. 4,176,564 and 4,172,072.

[3] = radioactive manganese in tissues after injection into the jugular vein (Example III); assay type: in vivo; details: female rats; for radioactivity in Hypothalamus / radioactivity in Pituitary / radioactivity in Uterine tissue: 5.2 mcg manganese
Source text: The manganese amino acid chelate was made utilizing a tripeptide of proline, histidine and glutamic acid as ligands and the mole ratio, of tripeptide ligand to manganese was 2:1. […] One hour after injection, three animals from each group were sacrificed. The remaining three from each group were sacrificed two hours after injection. The hypothalamus, pituitary and uterus of each animal was exposed and excised.

[4] = radioactive zinc in male sex tissues after intravenous dosage (Example II); details: rats, intravenous 0.06 mg zinc, 24 hours post treatment, group average
Experimental: Three groups of rats, six in each group, weighing 250 gms±10 gms. were given an intravenous dosage, of 0.06 mg zinc containing 10 microcuries of radioactive zinc.
Each rat was sacrificed 24 hours post treatment and the testes, epididymis, and seminal visicle of each were exposed, excised and a determination was made of the amount of radioactive zinc in each.

Question: Which “radioactivity in hypothalamus, mean corrected counts per minute per milligram of tissue” value ([1]; intravenous 0.06 mg Ca) does the source give for “calcium glycine amino acid chelate [chelated calcium]” here?
Answer: The value was 94.5±22.9 cc/min/mg.

Question: And the “calcium uptake in pituitary vs calcium chloride group” value ([1]; intravenous)?
Answer: The value was “showed an increase in calcium uptake”.

Question: What about the “calcium uptake in skeletal muscles vs calcium chloride group” value ([1]; intravenous) of the same substance?
Answer: The value was “showed an increase in calcium uptake”.

Question: And the “calcium uptake in uterus vs calcium chloride group” value ([1]; intravenous)?
Answer: The value was “showed an increase in calcium uptake”.

Question: What about the “increase in hypothalamus radioactive calcium, chelated vs inorganic calcium” value ([1]; intravenous) of the same substance?
Answer: The value was 39.6%.

Question: What about the stability constant [2] of the same substance?
Answer: The stability constant was 10^10.

Question: Which “change (drop) in manganese concentration in hypothalamus from one hour to two hours” value [3] does the source give for manganese chloride [MgCl Salt] here?
Answer: The value was “no noticable change”.

Question: And the “change in manganese concentration in pituitary from one hour to two hours” value [3]?
Answer: The value was “no noticable change”.

Question: What about the “radioactivity in Hypothalamus” value ([3]; 1 hr) of the same substance?
Answer: The value was 25 cc/min/mg.

Question: And the “radioactivity in Pituitary” value ([3]; 1 hr)?
Answer: Its value is 100 cc/min/mg.

Question: What about the “radioactivity in Uterine tissue” value ([3]; 1 hr) of the same substance?
Answer: The value was 50 cc/min/mg.

Question: And the “radioactivity in Hypothalamus” value ([3]; 2 hr)?
Answer: Its value is 25 cc/min/mg.

Question: What about the “radioactivity in Pituitary” value ([3]; 2 hr) of the same substance?
Answer: The value was 100 cc/min/mg.

Question: What about the “radioactivity in Uterine tissue” value ([3]; 2 hr) of the same substance?
Answer: Its value is 50 cc/min/mg.

Question: Which “radioactive zinc in Epididymis” value [4] does the source give for zinc-arginine chelate [GROUP I] here?
Answer: The value was 1.03 cc/min/mg.

Question: And the “radioactive zinc in Seminal Vesicle” value [4]?
Answer: The value was 2.53 cc/min/mg.

Question: What about the “radioactive zinc in Testes” value [4] of the same substance?
Answer: The value was 1.26 cc/min/mg.
